Measured values published in patent US8383617B2, “Treatment of protein aggregation diseases” (priority 2007, dated 2013).

The chains behind the UniProt entries cited, without tags or fusion partners. Residues count along the entry.
UniProt P05067, 672-711: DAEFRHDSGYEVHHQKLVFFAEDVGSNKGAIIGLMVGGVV

Target: Synthetic beta-amyloid peptide (Homo sapiens, UniProt P05067)
Test: PAGE and silver staining of aggregation reactions incubated with compounds
Assay type: biochemical

## OCCN1CCN(CCCN2c3ccccc3Sc3ccc(C(F)(F)F)cc32)CC1 [Fluphenazine, fluphenazine]
  inhibition of amyloid aggregation by PAGE and silver staining: inhibit the aggregation of the amyloid
